Laboratory results reported in paper PMC7132610 (Saudi Pharmaceutical Journal : SPJ, 2020).
Structures can show the parent of a compound that is named as a salt.

The chains behind the UniProt entries cited, without tags or fusion partners.
UniProt P21397, whole entry: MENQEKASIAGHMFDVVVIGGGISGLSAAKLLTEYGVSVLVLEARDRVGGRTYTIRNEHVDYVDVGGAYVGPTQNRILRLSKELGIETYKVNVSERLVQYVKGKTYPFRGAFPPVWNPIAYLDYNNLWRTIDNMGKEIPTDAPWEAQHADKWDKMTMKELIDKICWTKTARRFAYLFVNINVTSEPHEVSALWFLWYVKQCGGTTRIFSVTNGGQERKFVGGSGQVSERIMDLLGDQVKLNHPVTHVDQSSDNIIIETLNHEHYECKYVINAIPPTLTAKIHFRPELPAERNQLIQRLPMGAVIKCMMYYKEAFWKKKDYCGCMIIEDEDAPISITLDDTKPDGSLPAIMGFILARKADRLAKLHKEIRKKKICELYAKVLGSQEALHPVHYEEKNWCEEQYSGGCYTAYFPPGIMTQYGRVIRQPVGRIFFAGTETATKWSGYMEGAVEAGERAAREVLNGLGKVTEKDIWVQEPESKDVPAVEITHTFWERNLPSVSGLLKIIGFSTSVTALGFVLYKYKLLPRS
UniProt P27338, whole entry: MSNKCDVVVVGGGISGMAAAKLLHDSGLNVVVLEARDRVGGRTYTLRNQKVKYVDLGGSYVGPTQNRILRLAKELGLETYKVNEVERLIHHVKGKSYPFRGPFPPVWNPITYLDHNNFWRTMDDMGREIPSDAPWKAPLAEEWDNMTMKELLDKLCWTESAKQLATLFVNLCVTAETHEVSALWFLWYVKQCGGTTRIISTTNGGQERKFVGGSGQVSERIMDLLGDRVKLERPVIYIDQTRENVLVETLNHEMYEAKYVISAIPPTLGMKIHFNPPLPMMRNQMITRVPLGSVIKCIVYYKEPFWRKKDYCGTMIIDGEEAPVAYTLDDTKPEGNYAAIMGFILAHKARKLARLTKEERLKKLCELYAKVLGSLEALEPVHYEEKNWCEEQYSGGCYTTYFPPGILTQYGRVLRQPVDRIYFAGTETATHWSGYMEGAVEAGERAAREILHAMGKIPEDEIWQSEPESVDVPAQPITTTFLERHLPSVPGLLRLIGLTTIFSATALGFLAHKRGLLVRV

Legend:
recombinant human MAO-A = recombinant human MAO-A (Homo sapiens, UniProt P21397); assay: Kynuramine oxidative deamination assay, MAO-A inhibition; type: biochemical
recombinant human MAO-B [1] = target: T1, recombinant human MAO-B (Homo sapiens, UniProt P27338); assay: biochemical
recombinant human MAO-B [2] = target: T1, recombinant human MAO-B; assay: biochemical; remark: listed apart in the source

In the case of `NNCCc1ccccc1` [Phenelzine, phenelzine sulfate, reference compound], the IC50 (recombinant human MAO-A) is reported as 221 ± 9 nM, the IC50 (recombinant human MAO-B [1]) is reported as 131 ± 23 nM and the Ki (recombinant human MAO-B [2]) is reported as 61.6 ± 6.2 nM.
